Permeability data for macrocyclic peptides

Collected by the curators of CycPeptMPDB (Li et al. 2023) from Townsend et al. 2020, doi:10.26434/chemrxiv.13335941.v1.

PAMPA is the parallel artificial membrane permeability assay, which has no cells and reads passive diffusion. Permeability is given as log10 of P in cm/s; higher (less negative) is more permeable.

PAMPA (log10 cm/s)	compound
-5.71	CC(C)C[C@@H]1NC(=O)C[C@H](Cc2ccccc2)NC(=O)[C@H]2CCCN2C(=O)[C@H](Cc2ccccc2)NC(=O)[C@H](CC(C)C)NC(=O)[C@@H]2CCCN2C(=O)[C@H](CC(C)C)NC1=O
-5.56	CC(C)C[C@@H]1NC(=O)[C@H](C)NC(=O)[C@H](Cc2ccccc2)NC(=O)CN(Cc2ccccc2)C(=O)[C@@H]2CCCN2C(=O)[C@@H](CC(C)C)N(C)C1=O
-5.07	CC(C)C[C@@H]1NC(=O)[C@@H](C)N(C)C(=O)[C@H](Cc2ccccc2)NC(=O)CN(Cc2ccccc2)C(=O)[C@@H]2CCCN2C(=O)[C@H](CC(C)C)N(C)C1=O
-6.27	CC(C)C[C@@H]1NC(=O)[C@H]2CCCN2C(=O)[C@@H](CC(C)C)NC(=O)[C@@H](CC(C)C)NC(=O)C[C@H](Cc2ccccc2)NC(=O)[C@H]2CCCN2C(=O)[C@H](Cc2ccccc2)NC1=O
-4.97	CC(C)C[C@@H]1C(=O)N2CCC[C@@H]2C(=O)N[C@H](CC(C)C)C(=O)N[C@@H](Cc2ccccc2)C(=O)N2CCC[C@@H]2C(=O)N(C)[C@@H](C)C(=O)N(C)[C@H](CC(C)C)C(=O)N1C
-5.32	CC(C)C[C@@H]1NC(=O)[C@H](CC(C)C)N(C)C(=O)[C@@H](C)NC(=O)[C@H](Cc2ccccc2)NC(=O)[C@H](CC(C)C)N(C)C(=O)[C@@H]2CCCN2C1=O
-5.54	CC(C)C[C@@H]1NC(=O)[C@@H]2CCCN2C(=O)[C@H](CC(C)C)N(C)C(=O)[C@@H](CC(C)C)NC(=O)C[C@H](Cc2ccccc2)NC(=O)[C@H]2CCCN2C(=O)[C@H](Cc2ccccc2)NC1=O
-5.32	CC(C)C[C@H]1NC(=O)CN(Cc2ccccc2)C(=O)[C@@H](C)N(C)C(=O)[C@@H]2CCCN2C(=O)[C@H](Cc2ccccc2)NC(=O)[C@H](CC(C)C)N(C)C(=O)[C@H]2CCCN2C1=O
-5.63	CC(C)C[C@@H]1C(=O)N2CCC[C@@H]2C(=O)N[C@H](CC(C)C)C(=O)N[C@@H](Cc2ccccc2)C(=O)N2CCC[C@@H]2C(=O)N(C)[C@H](C)C(=O)N[C@H](CC(C)C)C(=O)N1C
-5.30	CC(C)C[C@H]1NC(=O)C[C@H](Cc2ccccc2)NC(=O)[C@H](Cc2ccccc2)NC(=O)[C@@H](CC(C)C)NC(=O)[C@H]2CCCN2C(=O)C[C@H](Cc2ccccc2)NC1=O
-5.43	CC(C)C[C@@H]1NC(=O)[C@H](C)N(C)C(=O)[C@H]2CCCN2C(=O)[C@H](Cc2ccccc2)NC(=O)CN(Cc2ccccc2)C(=O)[C@H]2CCCN2C(=O)CN(Cc2ccccc2)C1=O
-5.33	CC(C)C[C@@H]1C(=O)N[C@@H](Cc2ccccc2)C(=O)N2CCC[C@H]2C(=O)N[C@@H](Cc2ccccc2)CC(=O)N[C@H](CC(C)C)C(=O)N(C)[C@H](CC(C)C)C(=O)N2CCC[C@@H]2C(=O)N1C
-6.21	CC(C)C[C@@H]1NC(=O)[C@H]2CCCN2C(=O)[C@@H](CC(C)C)N(C)C(=O)[C@H](CC(C)C)NC(=O)[C@@H](C)N(C)C(=O)[C@H]2CCCN2C(=O)[C@H](Cc2ccccc2)NC1=O
-6.22	CC(C)C[C@@H]1C(=O)N(Cc2ccccc2)CC(=O)N2CCC[C@H]2C(=O)N[C@H](CC(C)C)C(=O)N[C@@H](Cc2ccccc2)C(=O)N(C)[C@H](C)C(=O)N1C

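Conditions beyond the assay type are not listed; see the original paper. Other peptides of the study may be missing here. Entries at the database's floor value (log10 P of -10) are not listed.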